Experimental data: patent publication US20260242405A1, “N-DERIVATIZED SIALIC ACIDS AND RELATED SIALOSIDES” (THE REGENTS OF THE UNIVERSITY OF CALIFORNIA, priority 2023, published 2026)

System: all sialidases tested (influenza NAs, hNEU2, SpNanA, PmST1)
Conditions: inhibitor 8.0 μM; Tables 4 and 5

Compound | inhibitory activity and selectivity over all sialidases tested, in words
CC(=O)N[C@H]1[C@H]([C@H](O)[C@H](O)CO)OC(C(=O)O)=C[C@@H]1NC(C)=O [4NAcNeu5Ac2en] | not an effective inhibitor against any of the sialidases tested
CC(=O)N[C@H]1[C@H]([C@H](O)[C@H](O)CO)OC(C(=O)O)=C[C@@H]1N [4NH2Neu5Ac2en, 4-amino-2,3-dehydro-N-acetylneuraminic acid, reference compound] | selective inhibitors against influenza NAs
